Measurements published in BindingDB's records for doi:10.1016/j.chembiol.2008.02.015 (University of Dundee, 2008).

By UniProt entry, the sequences of proteins in these tests, tags left out. Where a name states a change or a piece, a line headed by the entry shows the natural chain unless it says otherwise.
UniProt Q13231: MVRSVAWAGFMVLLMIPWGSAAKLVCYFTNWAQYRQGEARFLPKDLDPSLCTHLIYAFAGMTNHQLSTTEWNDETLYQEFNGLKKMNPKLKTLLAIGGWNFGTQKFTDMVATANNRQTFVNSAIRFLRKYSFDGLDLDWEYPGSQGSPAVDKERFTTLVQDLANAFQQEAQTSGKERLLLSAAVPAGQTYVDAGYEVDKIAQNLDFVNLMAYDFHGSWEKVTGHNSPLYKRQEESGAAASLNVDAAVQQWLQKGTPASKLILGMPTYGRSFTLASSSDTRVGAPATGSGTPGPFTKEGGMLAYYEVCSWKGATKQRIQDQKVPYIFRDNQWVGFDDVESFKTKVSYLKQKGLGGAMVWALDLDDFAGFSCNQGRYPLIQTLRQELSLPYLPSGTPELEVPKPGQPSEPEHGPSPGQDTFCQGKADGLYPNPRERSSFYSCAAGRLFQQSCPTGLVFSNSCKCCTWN

Biological target: Chitotriosidase-1 (Homo sapiens, UniProt Q13231)
Experiment: Inhibition Assay
Details: pH 5.5

CNC(=O)NC(=N)NCCC[C@@H]1NC(=O)[C@@H](C)NC(=O)C[C@@H](C(=O)O)NC(=O)C[C@@H](C(=O)O)NC(=O)[C@H](Cc2ccccc2)N(C)C1=O [(2R,5S,8S,11S,15S)-8-benzyl-2,7-dimethyl-5-[3-({[(methylcarbamoyl)amino]methanimidoyl}amino)propyl]-3,6,9,13,17-pentaoxo-1,4,7,10,14-pentaazacycloheptadecane-11,15-dicarboxylic acid]
IC50: 4.5 µM
